E-sel inducer – induces E-selectin expression in human endothelial cells; HUVEC E-selectin immunofluorescence imaging; normalized: neutral wells 0, TNF-alpha wells 100; activation, % at 7.58 µM; 260,000 tested, 0.37% active; AID 686992;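 active = mean E-selectin-positive cell signal at least 10% of the positive control, reached in at least 60% of replicates, without over 20% cell loss; inconclusive = no rule given, readout overlaps actives, possibly toxicity-flagged; inactive = the rest, including those meeting only one limit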
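Read-out: % PE-positive cells | Test system: HUVEC | Doses: One compound dose added by pin transfer | Buffer or medium: EGM-2 over gelatin coat | Signal: Immunofluorescence imaging | Benchmarks: TNF-alpha, DMSO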
Yeast UUG start – modulators of yeast start codon fidelity, primary screen, whole organism, S. cerevisiae, single point, plate reader; S. cerevisiae UUG-firefly luciferase reporter, luminescence/redox ratio; activity score, % at 18.7 µM; actives 0.13% (n = 350,000); AID 602363, 2012;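 active = replicate mean at a twofold rise or more, about +100% in these data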;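 also: firefly luciferase made from a UUG start codon reports start codon fidelity; reporter light over untreated wells divided by growth signal over untreated wells; some hits fall short of that in this replicate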
Cneo AK release – Cryptococcus neoformans lysis via adenylate kinase release; lysis activity, % at 15 µM; 360,000 tested, 0.2% active; C. neoformans lysis, adenylate kinase release luminescence, 4 h; normalised: neutral wells 0, clomiphene wells 100;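 active = mean lysis activity across replicates of at least 80%, whatever share of replicates individually reach that level; inactive = mean lysis activity below 80%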
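Test system: log-phase Cryptococcus neoformans yeast cells. Input: 5 × 10^6 yeast cells/mL. Medium: fresh YPD growth medium. Doses: single dose. Incubation: static 4 h at 37 °C with compound, 1 h detection. Measured by: luminescent adenylate kinase detection reagent. Read-out: signal increase indicating cell lysis. Benchmarks: Clomiphene.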
DENV2 CPE – protects cells from dengue virus 2 cytopathic effect; DENV2-infected cells, cytopathic effect rescue, plate reader; CPE inhibition, % at 9.99 µM; 350,000 tested, 1.7% active; AID 651640; in the data active = CPE inhibition above about 20%, passing the limit was not always enough; inconclusive = no clear call, values can overlap the other calls; tested in BHK-21 cells;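 note: 0% = median of neutral control wells and 100% = median of positive control wells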
Starred values were filed as active, the others as inactive. Hits are enriched below; roughly 1.8% of the tested compounds scored in any of these assays.

How did C[C@@H]1CN([C@@H](C)CO)C(=O)c2cc(NC(=O)CCCCCC(=O)Nc3ccccc3N)ccc2O[C@@H]1CN(C)Cc1ccncc1 do in these assays?
DENV2 CPE: -8

What do the screens show for `C[C@H](CO)N1C[C@H](C)[C@@H](CN(C)Cc2ccc(C(F)(F)F)cc2)Oc2ccc(NC(=O)C3CCCCC3)cc2CC1=O`?
E-sel inducer: 0; Yeast UUG start: 12; Cneo AK release: 2; DENV2 CPE: 42*

What do the screens show for `C[C@H](CO)N1C[C@H](C)[C@@H](CN(C)Cc2ccccc2)Oc2ccc(NC(=O)C3CCCCC3)cc2CC1=O`?
E-sel inducer: 0; Yeast UUG start: 6; Cneo AK release: -1; DENV2 CPE: 38*

Results for C[C@@H]1CN([C@H](C)CO)C(=O)Cc2cc(NC(=O)C3CCCCC3)ccc2O[C@@H]1CN(C)Cc1ccccc1 ?
E-sel inducer: 0; Yeast UUG start: -10; Cneo AK release: 1; DENV2 CPE: -7

Results for C[C@@H]1CN([C@@H](C)CO)C(=O)Cc2cc(NC(=O)C3CCCCC3)ccc2O[C@@H]1CN(C)Cc1ccc(C(F)(F)F)cc1 ?
E-sel inducer: 0; Yeast UUG start: 7; Cneo AK release: 2; DENV2 CPE: -2

How did CN1[C@@H]2Cn3c(ccc(-c4ccccc4)c3=O)[C@H]1[C@@H](C(=O)N1CCC(Cc3ccccc3)CC1)[C@@H]2CO do in these assays?
E-sel inducer: 0; Yeast UUG start: 16; Cneo AK release: 44; DENV2 CPE: -11

What do the screens show for `O=C(c1ccc[nH]1)N1O[C@@H]2C=C[C@H]1C2`?
E-sel inducer: 2; Yeast UUG start: -14; Cneo AK release: -1; DENV2 CPE: 62*

How did CCCCCCCCN1C(=O)[C@H](CC(=O)NCc2cccc(C(F)(F)F)c2)C[C@@]2(C(=O)OC)CC(C)(C)CC=C12 do in these assays?
E-sel inducer: 1; DENV2 CPE: 44*

What do the screens show for `Cc1ccc(S(=O)(=O)N(C)C[C@@H]2Oc3ccc(NC(=O)Cn4cnnn4)cc3C(=O)N([C@@H](C)CO)C[C@@H]2C)cc1`?
E-sel inducer: 0; Yeast UUG start: -7; Cneo AK release: 5; DENV2 CPE: 42*

Results for Cc1ccc(S(=O)(=O)N(C)C[C@H]2Oc3ccc(NC(=O)Cn4cnnn4)cc3C(=O)N([C@H](C)CO)C[C@H]2C)cc1 ?
E-sel inducer: 0; Yeast UUG start: -11; Cneo AK release: -3; DENV2 CPE: -7

What do the screens show for `C[C@@H]1CN([C@H](C)CO)C(=O)c2cc(NC(=O)Cn3cnnn3)ccc2O[C@@H]1CN(C)S(=O)(=O)c1ccccc1`?
E-sel inducer: 60*; DENV2 CPE: -6

Results for C[C@@H]1CN([C@@H](C)CO)C(=O)c2cc(NC(=O)Cn3cnnn3)ccc2O[C@H]1CN(C)S(=O)(=O)c1ccccc1 ?
E-sel inducer: 10; DENV2 CPE: -2

What do the screens show for `Cc1ccc(S(=O)(=O)N(C)C[C@@H]2Oc3ccc(NC(=O)Cn4cnnn4)cc3CC(=O)N([C@H](C)CO)C[C@@H]2C)cc1`?
E-sel inducer: 0; Yeast UUG start: 1; Cneo AK release: 0; DENV2 CPE: 31*

Results for CCN(CC)CCCNc1nc(C)cc(COC)c1C#N ?
E-sel inducer: 1; DENV2 CPE: 45*

Results for COC(=O)C(C(=O)OC)c1ccccc1NS(=O)(=O)c1ccc(C)cc1 ?
E-sel inducer: 4; DENV2 CPE: 0

How did COc1cc(NS(=O)(=O)c2ccc(C)cc2)c2c(c1N)C(=O)c1ccccc1C2=O do in these assays?
E-sel inducer: 127*; Yeast UUG start: 58; Cneo AK release: 0; DENV2 CPE: 6

Results for Cc1cccc(N=O)n1 ?
E-sel inducer: 0; DENV2 CPE: 0

How did Cc1cccc(N=[N+]([O-])c2cccc(C)n2)n1 do in these assays?
Yeast UUG start: -13; Cneo AK release: -2; DENV2 CPE: 27*

How did C[C@@H]1CN([C@H](C)CO)C(=O)Cc2cc(NC(=O)c3ccncc3)ccc2O[C@@H]1CN(C)Cc1ccc(Cl)c(Cl)c1 do in these assays?
E-sel inducer: 2; Cneo AK release: -2; DENV2 CPE: 1

Results for NC(=S)NNC(=O)C12CC3CC(CC(C3)C1)C2 ?
E-sel inducer: 55*; Yeast UUG start: -33; Cneo AK release: -1; DENV2 CPE: -3

Results for COC(=O)NNC(=O)C12CC3CC(CC(C3)C1)C2 ?
E-sel inducer: 0; Yeast UUG start: -8; Cneo AK release: -2; DENV2 CPE: inconclusive

How did O=C(O)c1ccccc1-c1ccc(/C=C/c2cc(C(F)(F)F)[nH]c(=O)n2)o1 do in these assays?
E-sel inducer: 28*; DENV2 CPE: -3

How did O=C(O)c1cc(Cl)ccc1-c1ccc(/C=C/c2cc(C(F)(F)F)[nH]c(=O)n2)o1 do in these assays?
DENV2 CPE: -3

How did COc1cccc2c1C(=O)c1c(O)c3c(c(O)c1C2=O)C[C@](O)(C(C)=O)C[C@H]3O[C@@H]1C[C@@H](N)[C@@H](O)[C@@H](C)O1 do in these assays?
E-sel inducer: 146*; Yeast UUG start: -28; Cneo AK release: -1; DENV2 CPE: -24

Quoted at random: 4 records from the list.
What do the screens show for `C[C@@H]1CN([C@H](C)CO)C(=O)c2cc(NC(=O)Cn3cnnn3)ccc2O[C@@H]1CN(C)S(=O)(=O)c1ccccc1`?
E-sel inducer: 60*; DENV2 CPE: -6

What do the screens show for `C[C@H](CO)N1C[C@H](C)[C@@H](CN(C)Cc2ccccc2)Oc2ccc(NC(=O)C3CCCCC3)cc2CC1=O`?
E-sel inducer: 0; Yeast UUG start: 6; Cneo AK release: -1; DENV2 CPE: 38*

What do the screens show for `O=C(c1ccc[nH]1)N1O[C@@H]2C=C[C@H]1C2`?
E-sel inducer: 2; Yeast UUG start: -14; Cneo AK release: -1; DENV2 CPE: 62*

How did COc1cc(NS(=O)(=O)c2ccc(C)cc2)c2c(c1N)C(=O)c1ccccc1C2=O do in these assays?
E-sel inducer: 127*; Yeast UUG start: 58; Cneo AK release: 0; DENV2 CPE: 6

(further entries)
Results for O=C(CN1CCOCC1)N1CCCCN2[C@H](CO)[C@H](c3ccc(C#Cc4ccccc4)cc3)[C@@H]2C1 ?
E-sel inducer: 0; Yeast UUG start: 15; Cneo AK release: 50; DENV2 CPE: 31*

What do the screens show for `O=C(CN1CCOCC1)N1CCCCN2[C@H](C1)[C@@H](c1ccc(/C=C/c3ccccc3)cc1)[C@@H]2CO`?
E-sel inducer: 0; Yeast UUG start: 7; Cneo AK release: 0; DENV2 CPE: 6

What do the screens show for `O=C(CN1CCOCC1)N1CCCCN2[C@@H](CO)[C@@H](c3ccc(-c4ccccc4)cc3)[C@@H]2C1`?
E-sel inducer: 1; Yeast UUG start: 7; Cneo AK release: -2; DENV2 CPE: 61*

How did O=C(CN1CCOCC1)N1CCCCN2[C@H](CO)[C@@H](c3ccc(C#Cc4ccccc4)cc3)[C@@H]2C1 do in these assays?
E-sel inducer: 0; Yeast UUG start: 4; Cneo AK release: 47; DENV2 CPE: 14

Results for O=C(CN1CCOCC1)N1CCCCN2[C@H](CO)[C@H](c3ccc(/C=C/c4ccccc4)cc3)[C@H]2C1 ?
E-sel inducer: 0; Yeast UUG start: -1; Cneo AK release: 32; DENV2 CPE: 54*

Results for CO[C@@H]1CN(C)C(=O)c2cc(NC(=O)Cc3ccccc3)ccc2OC[C@H](C)NC[C@@H]1C ?
E-sel inducer: 0; Cneo AK release: 0; DENV2 CPE: 7

How did CCN1CCC(N2CCN(c3ccc(F)cc3)CC2)CC1 do in these assays?
E-sel inducer: 0; Yeast UUG start: -3; Cneo AK release: 1; DENV2 CPE: 28*

How did N#C[C@@H]1[C@@H](c2ccc(-c3cccc(F)c3)cc2)[C@H](CO)N1c1nc(-c2ccccc2)cs1 do in these assays?
E-sel inducer: 0; DENV2 CPE: 90*

Results for N#C[C@@H]1[C@@H](c2ccc(-c3ccc(F)cc3)cc2)[C@H](CO)N1c1nc(-c2ccccc2)cs1 ?
E-sel inducer: 0; Yeast UUG start: -16; Cneo AK release: 3; DENV2 CPE: 61*

What do the screens show for `Nc1ccccc1O`?
Yeast UUG start: -23; Cneo AK release: -1
